Patent publication US20240150335A1, “FUSED RING DERIVATIVES CONTAINING 1,4-OXAZEPANE” (MEDSHINE DISCOVERY INC., priority 2021, published 2024)

Chains of the proteins cited; added tags and fusions are not shown. Residues count along the entry.
UniProt P53634, 25-134 limits assumed: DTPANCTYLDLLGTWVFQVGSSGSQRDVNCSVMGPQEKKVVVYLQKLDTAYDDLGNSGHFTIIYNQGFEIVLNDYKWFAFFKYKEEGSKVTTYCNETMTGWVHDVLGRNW
UniProt P53634, 231-394 limits assumed: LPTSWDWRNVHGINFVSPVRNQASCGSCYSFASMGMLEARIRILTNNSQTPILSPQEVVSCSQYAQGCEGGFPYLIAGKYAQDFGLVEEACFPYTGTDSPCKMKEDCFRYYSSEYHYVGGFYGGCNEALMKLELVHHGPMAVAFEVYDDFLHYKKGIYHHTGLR
UniProt P53634, 395-463 limits assumed: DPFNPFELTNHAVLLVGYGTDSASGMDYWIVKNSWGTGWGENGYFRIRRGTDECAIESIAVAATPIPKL

How the values were obtained:
[1] = biological target: Recombinant human cathepsin C/DPP1; test: Inhibition effect test of DPP1 enzyme activity; details: read-out: IC50, inhibitory activity on DPP1 enzyme; recombinant human cathepsin C/DPP1, Gly-Arg-AMC substrate 12.5 μM, 25° C. 60 minutes
DPP1 of U937 cells = DPP1 of U937 cells (Homo sapiens (Human), UniProt P53634); test: Activity test of inhibiting DPP1 in U937 cells; details: read-out: IC50, inhibitory activity on DPP1 of U937 cells, Gly-Phe-AFC probe

IC50 [1]: 11.5 nM
IC50 (DPP1 of U937 cells): 9.58 nM
SMILES: Cn1ccc2ncc(-c3ccc(CC(C#N)NC(=O)[C@@H]4CNCCCO4)c(F)c3)cc21 (some centres unmarked)
